The text below walks through data of US20130210167A1, “IMMUNOASSAY FOR PYRROLIDINOPHENONES” (RANDOX LABORATORIES LIMITED, priority 2012, published 2013).

The test system of this test is polyclonal antibody raised to Immunogen IV. As to the kind of experiment: Competitive biochip immunoassay of pyrrolidinophenones and potential cross-reactants (Evidence Investigator). The test is classed as binding, sheep.

SMILES strings stand for the structures. Bounds are passed on as bounds.

`CN1CC[C@]23c4c5ccc(O)c4O[C@H]2C(=O)CC[C@H]3[C@H]1C5` [Hydromorphone]: the “% Cross-reactivity” value is under 1%.
